## Yeast mating assay 1: variants of the scFv Ab-14

Source: Engelhart et al. 2022 (doi:10.1038/s41597-022-01779-4), MIT Lincoln Laboratory and A-Alpha Bio; data file from the FLAb repository.

Target peptide (SARS-CoV-2 spike, HR2 region): PDVDLGDISGINAS

Parent scFv Ab-14: VH joined to VL by a (GGGGS)3 linker. Changes lie in the light chain CDRs alone.
VH: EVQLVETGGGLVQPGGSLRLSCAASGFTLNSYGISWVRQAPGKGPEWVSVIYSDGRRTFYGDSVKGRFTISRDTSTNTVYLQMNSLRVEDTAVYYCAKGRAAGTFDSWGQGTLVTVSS
VL: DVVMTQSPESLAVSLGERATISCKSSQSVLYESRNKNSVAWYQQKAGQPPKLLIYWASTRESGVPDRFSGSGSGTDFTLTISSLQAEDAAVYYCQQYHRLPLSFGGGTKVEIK

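The parent was found by panning a naive human phage display library on the peptide. The library (AAYL50) carries one to three amino acid substitutions per variant, with no insertions or deletions. In AlphaSeq, yeast of one mating type display the scFv and yeast of the other type display the target. Pairs that bind mate more often; barcode pairs of the diploids are counted by sequencing. Each replicate has its own calibration line, from reference interactions of the BCL2 family. The assay was run in three technical replicates.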

Each variant is given by its three light chain CDRs, as the data file delimits them; those of the parent are KSSQSVLYESRNKNSVA, WASTRES, QQYHRLPLS. Scale: log10 of Kd in nM, estimated from mating counts; low values are strong binders. Replicates are averaged; those with no signal do not enter the mean. "nd" marks a missing value. The strain was present, yet no cells mated with the target were sequenced in that replicate, which points to weak or no binding. In this assay the parent's reference entry averaged 0.65; its copy inside this library read 1.68.

| CDR-L1 | CDR-L2 | CDR-L3 | log10 Kd, replicates | mean, log10 nM | empty controls |
|---|---|---|---|---|---|
| KSSQEVLYESYNKNVVA | WASTRES | QQYHRLPLS | 5.29 4.67 nd | 4.98 | 9 of 9 (5.34) |
| LHSQNVLYESRNKNSVA | WASTRES | QQYHRLPLS | 3.14 3.69 4.15 | 3.66 | 1 of 9 (4.57) |
| KSSQSVLYESRNKKSVA | WASTRES | MQYHRLPLS | nd 4.21 4.55 | 4.38 | 1 of 9 (3.99) |
| KSSTSVLYESRNKTSVA | WASTRES | QQYHFLPLS | 3.03 2.81 3.49 | 3.11 | 1 of 9 (3.31) |
| KSSQSPLYESRNKNSVK | WASTRES | QQYHRLPLS | nd nd 4.20 | 4.20 | 3 of 9 (4.78) |
| KSSQSPLYESRNKNSVP | WASTRES | QQYHFLPLS | nd nd nd | nd | 0 of 9 |
| KSSQSVLYESRNKNQVA | WASTRES | QQYFRLPLS | 0.39 0.62 0.45 | 0.49 | 2 of 9 (3.96) |
| KSSQSVLYESRNKNSVM | WASTRED | QQFHRLPLS | 2.59 nd 3.81 | 3.20 | 1 of 9 (3.38) |
| KSSQSWLYESRNANSVA | WASTRES | QQYHRYPLS | 2.21 2.02 nd | 2.11 | 0 of 9 |
| KSSQSVLYESRNKNSVA | WANTRES | QQTHRLPIS | nd nd nd | nd | 0 of 9 |
| KSSQSVLYESRNKNKQA | WASTRES | QQRHRLPLS | nd nd nd | nd | 0 of 9 |
| KSSQLVLYESTNKNSVA | WASTRES | QQYHRLPLS | 0.24 0.46 0.45 | 0.38 | 0 of 9 |
| KSSQSVLYEERNKNIVA | WASTRES | QQYHRLPLH | nd nd 5.05 | 5.05 | 1 of 9 (5.60) |
| KSSGSVLYESRNKNSVA | WASTREM | QQYHNLPLS | 1.56 1.55 1.67 | 1.59 | 0 of 9 |
| KSSQSVLYNSRNKLSVA | WASTRES | QQYHRVPLS | 2.33 2.48 2.83 | 2.55 | 5 of 9 (4.13) |
| KSSQSVLYESRNKNPVA | WASTRED | QQYARLPLS | 0.28 0.78 0.53 | 0.53 | 3 of 9 (4.15) |
| ASSQSVMYESRNKNSVA | WASTRES | QQYHREPLS | nd nd nd | nd | 2 of 9 (3.25) |
| KSSQPVLYESRNKNSVA | WASERES | QDYHRLPLS | 0.92 0.89 1.04 | 0.95 | 0 of 9 |
| KGSQSVLYESQNKNSVA | WASTRES | QQYHRLPLS | 0.90 1.00 1.15 | 1.02 | 3 of 9 (3.72) |
| KFSQSVLYESRNKNRVA | WASTRES | QQYHRLPLQ | 0.92 1.19 1.11 | 1.07 | 1 of 9 (4.67) |
| KSSQSVPYESRNYNSVA | WASTRES | QQYHRCPLS | nd nd nd | nd | 0 of 9 |
| KSSQSCLYESRLKNSVA | WASVRES | QQYHRLPLS | nd nd nd | nd | 2 of 9 (3.99) |
| KSSQSVSYESRNKNSVA | WQSTRES | QQYHRLPSS | 2.24 nd nd | 2.24 | 0 of 9 |
| HSSQSVLYESRNKNSVA | WAMTIES | QQYHRLPLS | nd 2.83 nd | 2.83 | 0 of 9 |
| KSSQSVLQMSRNKNSVA | WASTRES | QAYHRLPLS | 2.67 2.61 3.07 | 2.78 | 2 of 9 (3.99) |
| KSSQSVLYESRNKNSVA | WRSTREH | QQWHRLPLS | 3.42 4.23 nd | 3.82 | 3 of 9 (3.55) |
| KSSQSVLYESRNLNSVA | WASTRES | QQIHRLSLS | nd nd nd | nd | 0 of 9 |
| KSSQSVLYESPNSNSVA | WASTRES | QQYHHLPLS | 1.44 1.57 1.72 | 1.58 | 2 of 9 (4.05) |
| KSSQSVLYERRNKNSVA | WASTREN | QQYNRLPLS | 3.04 2.88 2.94 | 2.95 | 1 of 9 (3.88) |
| KSSQSVLYESRNTNSVA | WASTRES | QQYHRLPCS | 0.74 0.75 0.73 | 0.74 | 0 of 9 |
| KVSQSVYYESRNKNSVA | WASTRES | QQYHRLPLR | 5.82 3.99 nd | 4.90 | 0 of 9 |
| KYSQSLLYESRNKNSVA | WASSRES | QQYHRLPLS | nd nd nd | nd | 0 of 9 |
| KSEQSVLYESRNKNMVA | WASTRES | QQKHRLPLS | 3.05 2.76 3.51 | 3.11 | 1 of 9 (3.47) |
| KSSQSCLYESRNKNSVA | WASTRVS | QQYHRLPLQ | 2.62 nd nd | 2.62 | 3 of 9 (3.65) |
| KSSQSVRYESRNKNSVA | WASTRES | QWEHRLPLS | nd nd nd | nd | 0 of 9 |
| KSSQSVLYEHRNRNSVA | WASTRES | QQQHRLPLS | nd nd nd | nd | 0 of 9 |
| KSSSSVLYESRNKNSVA | WASTRES | QQYHRLPLS | 1.08 1.24 1.13 | 1.15 | 4 of 9 (4.73) |
| KSSQSHLYESRNKNSVA | WTPTRES | QQYHRLPLS | 3.94 nd 5.09 | 4.51 | 4 of 9 (3.89) |
| KSSQSVLYETRNFNSVA | WASTRES | QQYHRLPLS | 0.83 1.12 1.04 | 1.00 | 1 of 9 (4.75) |
| KSAQSVLYESRNKNSMA | WASTRES | QQYHRLPLS | 0.96 0.69 0.65 | 0.76 | 0 of 9 |
| KSSQSVLYGSRNKNSVA | WASTRES | QKYQRLPLS | nd nd nd | nd | 0 of 9 |
| KSDQSKLYESRNKNSVA | WASTRES | QQYHRLWLS | nd nd nd | nd | 1 of 9 (3.42) |
| KSSQSVLYESRNKNSVA | MASTRES | FQCHRLPLS | 5.49 3.98 4.89 | 4.79 | 3 of 9 (3.81) |
| KSSQSVLYETRNKNSVA | WRSTRES | QQYVRLPLS | 5.48 4.16 3.85 | 4.49 | 5 of 9 (4.28) |
| KSSQSVLYEQTRKNSVA | WASTRES | QQYHRLPLS | 0.50 0.63 0.61 | 0.58 | 0 of 9 |
| KSSQSYLYESRNKNSVA | WASTRCS | QQYHALPLS | 0.71 0.80 0.97 | 0.83 | 3 of 9 (4.48) |
| KSSASVLYESRNKNSVA | WGSTRES | QQYHRLPLK | nd nd nd | nd | 1 of 9 (3.55) |
| KSSQSVLYESRIKNSVA | WADGRES | QQYHRLPLS | 3.70 nd nd | 3.70 | 3 of 9 (4.38) |
| KSSYSVLYEARNKNSVA | WASTGES | QQYHRLPLS | nd nd nd | nd | 0 of 9 |
| KSSQSVLYESRNKNSVA | AASTREE | QQYTRLPLS | 1.91 1.62 3.08 | 2.20 | 0 of 9 |
| GSSQSVLYKSRNKNSVA | WASTRES | QNYHRLPLS | 3.10 2.80 nd | 2.95 | 0 of 9 |
| KSPQSVLYESANKNSVA | WASTRTS | QQYHRLPLS | 0.88 1.16 1.14 | 1.06 | 3 of 9 (3.65) |

Excerpt, the first 8 entries:

| CDR-L1 | CDR-L2 | CDR-L3 | log10 Kd, replicates | mean, log10 nM | empty controls |
|---|---|---|---|---|---|
| KSSQEVLYESYNKNVVA | WASTRES | QQYHRLPLS | 5.29 4.67 nd | 4.98 | 9 of 9 (5.34) |
| LHSQNVLYESRNKNSVA | WASTRES | QQYHRLPLS | 3.14 3.69 4.15 | 3.66 | 1 of 9 (4.57) |
| KSSQSVLYESRNKKSVA | WASTRES | MQYHRLPLS | nd 4.21 4.55 | 4.38 | 1 of 9 (3.99) |
| KSSTSVLYESRNKTSVA | WASTRES | QQYHFLPLS | 3.03 2.81 3.49 | 3.11 | 1 of 9 (3.31) |
| KSSQSPLYESRNKNSVK | WASTRES | QQYHRLPLS | nd nd 4.20 | 4.20 | 3 of 9 (4.78) |
| KSSQSPLYESRNKNSVP | WASTRES | QQYHFLPLS | nd nd nd | nd | 0 of 9 |
| KSSQSVLYESRNKNQVA | WASTRES | QQYFRLPLS | 0.39 0.62 0.45 | 0.49 | 2 of 9 (3.96) |
| KSSQSVLYESRNKNSVM | WASTRED | QQFHRLPLS | 2.59 nd 3.81 | 3.20 | 1 of 9 (3.38) |

As a blank, each scFv also met three strains without target: over library AAYL50, 18% of these pairings were detected, typically at 4.19 and seldom below 2.99. Also given: how often the same scFv was detected with the empty control strains, with their mean in brackets.